System: Caco-2 cells
Assay: Intestinal barrier function improvement: suppression of cytokine-induced TEER reduction in Caco-2 monolayer
Assay type: cell-based, human
Description: Caco-2 cells were cultured for three weeks at 37° C. in Transwell (manufactured by Millicell Corporation) using DMEM (Dulbecco's modified Eagle's medium). A medium was removed from a plate of cultured Caco-2 cells, and the well was washed 3 times with serum-free DMEM. The well was filled with the medium. Then, the transepithelial electrical resistance (TEER) of Caco-2 monolayer cells was measured by Millicell-ERS (manufactured by Millipore Corporation). Cells (TEER≥1000 Ω·cm^2) determined that a sufficient tight junction was formed were selected, and used for the next screening. Then, to test solutions (media) on both apical and basolateral membrane sides, a sample, TNFα (40 ng/mL), IL-1β (20 ng/mL), and IFNγ (10 ng/mL) were added, followed by cultivating for 48 hours. […] After the cultivation, TEER was measured again, to evaluate whether the sample suppressed the reduction (decrease) of TEER due to the inflammatory cytokine.
The TEER reduction suppression ratio (%) due to the sample was determined according to the following formula from the TEER values of the well to which the sample was added, normal, and control. […]
The intestinal barrier function improvement action was evaluated by the same method (the method for evaluating intestinal barrier function improvement action described in Example 4) as that in Example 4. […]

Catechin gallate
Relative value of TEER reduction suppression ratio of gallate type compound (non-gallate type compound taken as 1) (10 μM, gallate vs non-gallate in the same evaluation): 2.7
TEER reduction suppression ratio (%) (sample 10 μM, TNFα 40 ng/mL, IL-1β 20 ng/mL, IFNγ 10 ng/mL, 48 hours, Table 2): 40%
